# Measured affinities in a library of Ab-95 light chain variants

Target peptide (SARS-CoV-2 spike, HR2 region): PDVDLGDISGINAS

Ab-95 is the parent antibody, in scFv form: VH, then three GGGGS repeats, then VL. The heavy chain is unchanged in all variants.
VH: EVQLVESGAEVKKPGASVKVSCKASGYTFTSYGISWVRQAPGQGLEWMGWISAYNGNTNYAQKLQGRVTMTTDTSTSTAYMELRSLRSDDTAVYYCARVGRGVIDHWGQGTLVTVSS
VL: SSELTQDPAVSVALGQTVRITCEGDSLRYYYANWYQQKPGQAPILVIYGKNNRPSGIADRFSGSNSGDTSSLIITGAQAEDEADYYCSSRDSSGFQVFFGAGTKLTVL

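AAYL52 was designed without a model: most single CDR substitutions and a random sample of double and triple ones. In AlphaSeq, yeast of one mating type display the scFv and yeast of the other type display the target. Pairs that bind mate more often; barcode pairs of the diploids are counted by sequencing. The ratio of observed to expected reads was calibrated, replicate by replicate, on BCL2-family standards whose Kd was known from biolayer interferometry. Each pool was mated in three replicate cultures.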

Each variant is given by its three light chain CDRs, as the data file delimits them; those of the parent are EGDSLRYYYAN, GKNNRPS, SSRDSSGFQVF. Every variant below is changed at N51 of the VL (sequential numbering). Numbers give log10(Kd / nM), so 0 is 1 nM and 3 is 1 µM. Smaller is tighter. The mean shown is taken over the replicates in which the pair was detected. "nd" marks a missing value. The strain was present, yet no cells mated with the target were sequenced in any replicate, which points to weak or no binding. Nonspecific signal, from three strains lacking the peptide, appeared in 28% of pairings of library AAYL52, centred on 3.91 (5% of these signals below 2.90); values are not corrected for it. For reference, the parent read 2.31 as the reference entry and 2.25 as a member of this library.

* EGDSLRYYYAN, GKSNRPS, PSRDSNGFQVF = 3.81 (2 of 3 replicates)
* EGDSLRYYYAN, GKHNRPS, SSRDSKQFQVF = 4.29 (2 of 3 replicates)
* EGDSLRYYYAN, GKFNRRS, SSMDSSGFQVF = nd (0 of 3 replicates)
* EGDSLRYYYWN, GKFNRPA, SSRDSSGFQVF = 4.09 (2 of 3 replicates)
* EGDSLRYYYAK, GKPNRPS, RSRDSSGFQVF = nd (0 of 3 replicates)
* EGDSLRYYYAN, GKPNHPS, MSRDSSGFQVF = 3.88 (2 of 3 replicates)
* EGDSLRYYYAN, GKCNRPS, MLRDSSGFQVF = nd (0 of 3 replicates)
* EGDSLRYYYAN, GKENRPS, SSRDSSGFQVF = 2.81 (3 of 3 replicates)
* EGDSLRYYYAE, GKINRES, SSRDSSGFQVF = nd (0 of 3 replicates)
* EGDSPRYYYAN, GCVNRPS, SSRDSSGFQVF = 3.86 (2 of 3 replicates)
* EGDSLRYYYAN, GKYNRPS, SSRDSSGFQVF = 3.13 (3 of 3 replicates)
* NGDSLRYYYAN, GKFNYPS, SSRDSSGFQVF = nd (0 of 3 replicates)
* GGRSLRYYYAN, GKKNRPS, SSRDSSGFQVF = 5.16 (3 of 3 replicates)
* EGDSIRYYYAN, NKGNRPS, SSRDSSGFQVF = 3.61 (1 of 3 replicates)
* EGDSLRYYYAN, GKMNRPS, SSRDSSGFQVL = 3.58 (3 of 3 replicates)
* EGDSLRYYYAN, GKQNRAS, SSRDSSGFSVF = 2.97 (3 of 3 replicates)
* EGDSLRYYYAN, GTPNRPS, SSRDSSGFQVF = 3.81 (3 of 3 replicates)
* EDDSLRYYYAN, GKMNRVS, SSRDSSGFQVF = 4.00 (1 of 3 replicates)
* EGDSLRYQYAN, GKLNRPT, SSRDSSGFQVF = 1.45 (3 of 3 replicates)
* EGDSLRYYYAN, SKINRPS, SSRDSSHFQVF = 3.99 (2 of 3 replicates)
* EGDSLRYYYAN, GKDNRPS, SAWDSSGFQVF = 3.19 (3 of 3 replicates)
* EGDSLRCYYAN, GKGNRMS, SSRDSSGFQVF = 4.61 (3 of 3 replicates)
* QGDTLRYYYAN, GKQNRPS, SSRDSSGFQVF = 3.24 (3 of 3 replicates)
* EGDSLRYYYAN, LKLNRPS, SSRDSSGFGVF = 3.72 (2 of 3 replicates)
* EGDSLRYYYAN, GKDTRPS, SSRDSSTFQVF = 2.87 (3 of 3 replicates)
* EGDSLRYYYLN, GKWNRPS, SSRDSSGFQVF = nd (0 of 3 replicates)
* EGDSLRYYYAN, GKMNFPS, SSRDSSGFQVF = 4.42 (3 of 3 replicates)
* EGDSLRYYYLN, GKWNRPS, SSRDSSGFQVR = 4.05 (1 of 3 replicates)
* EGDSLQYYYAN, GKANRPS, SSRDSKGFQVF = 2.95 (2 of 3 replicates)
* EGDSLRYYYAN, GKANIPS, SPRDSSGFQVF = 4.75 (2 of 3 replicates)
* EGDRLRYYYAN, GKPNRPA, SSRDSSGFQVF = nd (0 of 3 replicates)
* EGDSLRYYYAN, GKFNHPS, SSRDSSGFVVF = nd (0 of 3 replicates)
* EGDSRRYYYAN, GKPNRPE, SSRDSSGFQVF = 4.03 (2 of 3 replicates)
* EGDSLRYYYAH, GKENRPS, SSRDSSGGQVF = 2.61 (3 of 3 replicates)
* EGDSLRYYYAN, GKDNHPS, SVRDSSGFQVF = 3.08 (3 of 3 replicates)
* EGDSLRYYYFN, GKWNRPS, SPRDSSGFQVF = 3.83 (2 of 3 replicates)
* EGDSLRYYYAN, GKPKRKS, SSRDSSGFQVF = 4.80 (2 of 3 replicates)
* EGDSLRYYYAN, GFLNRPS, DSRDSSGFQVF = nd (0 of 3 replicates)
* EGDSLRYYYAN, GKWQQPS, SSRDSSGFQVF = 3.56 (3 of 3 replicates)
* ELDSLRYYYAN, GKCNRPS, LSRDSSGFQVF = 4.13 (1 of 3 replicates)
* EGDSHRYYYAN, GKLNRPS, SSRDSSGFQVF = 3.75 (1 of 3 replicates)
* EGDSLRYYYAN, GKYNRPS, SSWDPSGFQVF = nd (0 of 3 replicates)
* EGDSLRYYYAN, GKLNRFS, SPRDSSGFQVF = 5.21 (1 of 3 replicates)
* EGDSLRYYYAN, GKKNRPS, SSRDSSGFQKG = 3.62 (1 of 3 replicates)
* EGDSLRYYYAN, GKAARPS, SSRDSSGGQVF = 4.07 (3 of 3 replicates)
* EGDSLRYYYAN, GKDQLPS, SSRDSSGFQVF = 2.50 (3 of 3 replicates)
* EGDSLQYYYAN, GKANRPS, SHRDSSGFQVF = 3.81 (1 of 3 replicates)
* EFDSLRYYYAN, GKQNRPS, SSRYSSGFQVF = 5.33 (1 of 3 replicates)
* EKDSLRYYYAN, GKMNRPS, SSVDSSGFQVF = 4.78 (2 of 3 replicates)
* EGDSLRYYYTN, GKPNRPS, SSRDSSGNQVF = 3.88 (1 of 3 replicates)
* EGDSLRYYYAN, GKMNRPS, SSRDSSGFQPT = 3.05 (1 of 3 replicates)
* EGDSLRYLYAN, GKFNRPS, SSRHSSGFQVF = 3.02 (1 of 3 replicates)

The first 3 entries again:

- EGDSLRYYYAN, GKSNRPS, PSRDSNGFQVF: 3.81 (2 of 3 replicates)
- EGDSLRYYYAN, GKHNRPS, SSRDSKQFQVF: 4.29 (2 of 3 replicates)
- EGDSLRYYYAN, GKFNRRS, SSMDSSGFQVF: nd (0 of 3 replicates)

The measurements come from Engelhart et al. 2022 (doi:10.1038/s41597-022-01779-4) through the FLAb antibody collection.